Data as given in PubChem BioAssay (EPA / NIEHS).
Values joined by “and” are separate entries in the source; they are usually repeats but may differ in a detail not shown here. Equal entries are not always repeated. The entries are a selection whose mix differs from that of the whole data set. Records with an inconclusive call do not appear. The source holds several records for some structures; these can differ, active in one and inactive in another. Active and inactive are the calls of the source. Rule for the calls: active = hit-call score of the fitted dose curve at least 0.9, where 1 is the maximum; inconclusive = response in the unintended direction; inactive = score below 0.9.

Chains of the proteins cited; added tags and fusions are not shown. Lines headed by an entry give the natural chain unless they say otherwise; changes in a name come on top.
UniProt P28223, whole entry, looked up: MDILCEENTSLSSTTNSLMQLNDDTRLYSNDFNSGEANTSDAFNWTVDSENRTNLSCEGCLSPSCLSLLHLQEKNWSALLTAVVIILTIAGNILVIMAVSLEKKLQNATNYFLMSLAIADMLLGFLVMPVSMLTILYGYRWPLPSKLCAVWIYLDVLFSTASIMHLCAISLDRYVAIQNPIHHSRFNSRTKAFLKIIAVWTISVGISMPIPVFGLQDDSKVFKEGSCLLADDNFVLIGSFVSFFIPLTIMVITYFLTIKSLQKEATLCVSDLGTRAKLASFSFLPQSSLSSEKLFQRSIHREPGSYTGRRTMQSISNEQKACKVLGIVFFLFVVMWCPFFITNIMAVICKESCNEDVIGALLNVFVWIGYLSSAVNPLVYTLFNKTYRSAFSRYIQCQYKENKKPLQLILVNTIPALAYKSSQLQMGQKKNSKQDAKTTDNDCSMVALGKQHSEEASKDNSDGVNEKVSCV
UniProt Q02763: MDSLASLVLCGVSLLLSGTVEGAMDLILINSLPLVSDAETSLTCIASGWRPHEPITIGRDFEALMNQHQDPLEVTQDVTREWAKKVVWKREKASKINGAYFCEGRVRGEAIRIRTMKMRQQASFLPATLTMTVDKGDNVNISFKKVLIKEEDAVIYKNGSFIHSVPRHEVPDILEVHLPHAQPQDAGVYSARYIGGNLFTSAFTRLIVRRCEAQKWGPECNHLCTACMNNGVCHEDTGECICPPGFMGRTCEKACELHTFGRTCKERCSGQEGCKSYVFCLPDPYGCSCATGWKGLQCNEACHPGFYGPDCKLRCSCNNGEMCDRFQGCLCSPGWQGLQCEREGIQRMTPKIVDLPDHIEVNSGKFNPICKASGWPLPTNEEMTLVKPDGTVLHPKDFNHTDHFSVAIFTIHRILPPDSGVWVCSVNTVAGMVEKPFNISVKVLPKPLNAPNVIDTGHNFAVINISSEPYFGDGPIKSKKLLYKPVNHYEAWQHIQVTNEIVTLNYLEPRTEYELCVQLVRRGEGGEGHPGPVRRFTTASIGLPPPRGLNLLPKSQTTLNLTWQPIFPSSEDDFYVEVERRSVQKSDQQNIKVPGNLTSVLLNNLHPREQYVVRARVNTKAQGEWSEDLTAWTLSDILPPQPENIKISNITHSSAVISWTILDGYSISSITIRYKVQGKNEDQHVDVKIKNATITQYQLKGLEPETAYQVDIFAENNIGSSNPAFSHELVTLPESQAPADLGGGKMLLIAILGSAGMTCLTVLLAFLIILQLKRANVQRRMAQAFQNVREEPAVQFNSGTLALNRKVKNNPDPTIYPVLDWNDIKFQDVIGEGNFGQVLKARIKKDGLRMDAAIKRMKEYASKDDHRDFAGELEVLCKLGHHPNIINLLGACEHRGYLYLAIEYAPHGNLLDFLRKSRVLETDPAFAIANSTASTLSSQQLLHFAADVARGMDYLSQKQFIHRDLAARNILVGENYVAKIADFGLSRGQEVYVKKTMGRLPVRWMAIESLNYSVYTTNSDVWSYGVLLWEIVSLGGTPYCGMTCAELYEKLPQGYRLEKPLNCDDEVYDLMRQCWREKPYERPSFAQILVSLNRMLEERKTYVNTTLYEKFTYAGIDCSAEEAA
UniProt P17948, whole entry, looked up: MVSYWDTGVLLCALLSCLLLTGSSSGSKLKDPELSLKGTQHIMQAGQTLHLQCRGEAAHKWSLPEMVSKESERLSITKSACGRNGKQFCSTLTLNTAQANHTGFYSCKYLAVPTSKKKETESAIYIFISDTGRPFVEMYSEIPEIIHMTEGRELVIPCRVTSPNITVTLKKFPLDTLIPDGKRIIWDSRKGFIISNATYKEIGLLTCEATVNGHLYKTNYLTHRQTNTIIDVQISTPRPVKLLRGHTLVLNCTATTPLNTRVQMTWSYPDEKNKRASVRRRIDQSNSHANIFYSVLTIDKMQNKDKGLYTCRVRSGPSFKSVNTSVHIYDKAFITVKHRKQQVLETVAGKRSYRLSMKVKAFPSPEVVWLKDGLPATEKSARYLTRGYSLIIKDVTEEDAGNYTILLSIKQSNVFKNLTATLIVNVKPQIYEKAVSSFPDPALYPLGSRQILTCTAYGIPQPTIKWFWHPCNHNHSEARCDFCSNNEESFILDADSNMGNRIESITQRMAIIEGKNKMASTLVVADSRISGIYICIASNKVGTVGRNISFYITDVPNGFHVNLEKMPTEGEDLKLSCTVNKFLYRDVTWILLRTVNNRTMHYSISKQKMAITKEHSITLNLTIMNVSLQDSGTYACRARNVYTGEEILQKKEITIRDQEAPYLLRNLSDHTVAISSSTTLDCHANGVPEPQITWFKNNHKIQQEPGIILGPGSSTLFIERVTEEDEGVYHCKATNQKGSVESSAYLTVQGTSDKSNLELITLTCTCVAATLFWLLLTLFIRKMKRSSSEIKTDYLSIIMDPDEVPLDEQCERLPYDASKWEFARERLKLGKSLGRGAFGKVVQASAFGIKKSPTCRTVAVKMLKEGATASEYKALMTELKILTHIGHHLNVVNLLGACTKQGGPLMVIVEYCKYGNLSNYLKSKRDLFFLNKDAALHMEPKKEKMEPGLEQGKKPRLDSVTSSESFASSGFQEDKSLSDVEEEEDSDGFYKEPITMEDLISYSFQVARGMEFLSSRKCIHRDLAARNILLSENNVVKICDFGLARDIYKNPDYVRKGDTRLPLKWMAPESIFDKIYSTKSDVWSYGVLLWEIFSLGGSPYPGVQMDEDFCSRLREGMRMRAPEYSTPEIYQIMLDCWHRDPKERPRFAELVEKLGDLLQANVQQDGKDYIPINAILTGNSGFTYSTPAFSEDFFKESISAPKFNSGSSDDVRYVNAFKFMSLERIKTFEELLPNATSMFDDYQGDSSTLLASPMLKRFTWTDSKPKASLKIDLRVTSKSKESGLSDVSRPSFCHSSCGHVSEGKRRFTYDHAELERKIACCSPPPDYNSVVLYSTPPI
UniProt P28190, whole entry, looked up: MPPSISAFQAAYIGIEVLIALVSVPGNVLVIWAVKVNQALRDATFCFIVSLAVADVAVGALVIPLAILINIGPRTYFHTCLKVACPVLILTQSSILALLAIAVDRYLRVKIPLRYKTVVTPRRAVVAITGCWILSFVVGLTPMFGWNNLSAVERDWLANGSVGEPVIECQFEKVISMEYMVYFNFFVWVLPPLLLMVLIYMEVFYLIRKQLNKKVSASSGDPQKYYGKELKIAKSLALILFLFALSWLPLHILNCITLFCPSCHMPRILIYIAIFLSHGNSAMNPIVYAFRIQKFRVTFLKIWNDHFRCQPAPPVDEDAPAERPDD
UniProt Q2NNR5: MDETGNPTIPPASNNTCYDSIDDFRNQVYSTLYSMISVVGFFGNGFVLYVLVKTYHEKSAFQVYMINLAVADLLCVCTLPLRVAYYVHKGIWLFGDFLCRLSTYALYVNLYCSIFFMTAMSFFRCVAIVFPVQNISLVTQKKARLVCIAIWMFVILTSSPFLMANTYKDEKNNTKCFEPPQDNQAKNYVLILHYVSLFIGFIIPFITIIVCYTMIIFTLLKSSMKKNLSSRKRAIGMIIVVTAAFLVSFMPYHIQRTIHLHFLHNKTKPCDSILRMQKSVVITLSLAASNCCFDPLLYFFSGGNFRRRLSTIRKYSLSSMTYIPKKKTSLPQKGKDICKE
UniProt P47898, whole entry, looked up: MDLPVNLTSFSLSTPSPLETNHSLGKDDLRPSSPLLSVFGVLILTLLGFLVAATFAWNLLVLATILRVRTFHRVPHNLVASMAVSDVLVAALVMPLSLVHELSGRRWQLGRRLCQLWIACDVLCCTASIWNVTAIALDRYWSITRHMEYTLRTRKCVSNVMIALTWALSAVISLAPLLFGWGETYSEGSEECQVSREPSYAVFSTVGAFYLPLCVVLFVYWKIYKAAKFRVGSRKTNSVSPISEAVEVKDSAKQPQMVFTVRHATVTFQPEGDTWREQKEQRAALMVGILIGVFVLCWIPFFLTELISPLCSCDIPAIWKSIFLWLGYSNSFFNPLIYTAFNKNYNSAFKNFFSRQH
UniProt P41144: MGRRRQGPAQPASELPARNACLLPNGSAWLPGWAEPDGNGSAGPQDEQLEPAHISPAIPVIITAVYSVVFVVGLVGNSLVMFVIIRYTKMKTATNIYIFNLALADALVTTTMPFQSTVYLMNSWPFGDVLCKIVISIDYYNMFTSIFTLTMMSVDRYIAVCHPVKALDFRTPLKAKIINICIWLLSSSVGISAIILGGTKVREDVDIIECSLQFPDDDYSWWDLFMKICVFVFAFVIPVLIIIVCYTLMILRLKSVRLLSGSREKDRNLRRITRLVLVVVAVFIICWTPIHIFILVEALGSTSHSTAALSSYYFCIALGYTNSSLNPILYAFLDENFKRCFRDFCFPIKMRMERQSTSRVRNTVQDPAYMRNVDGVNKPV
UniProt P35916, whole entry, looked up: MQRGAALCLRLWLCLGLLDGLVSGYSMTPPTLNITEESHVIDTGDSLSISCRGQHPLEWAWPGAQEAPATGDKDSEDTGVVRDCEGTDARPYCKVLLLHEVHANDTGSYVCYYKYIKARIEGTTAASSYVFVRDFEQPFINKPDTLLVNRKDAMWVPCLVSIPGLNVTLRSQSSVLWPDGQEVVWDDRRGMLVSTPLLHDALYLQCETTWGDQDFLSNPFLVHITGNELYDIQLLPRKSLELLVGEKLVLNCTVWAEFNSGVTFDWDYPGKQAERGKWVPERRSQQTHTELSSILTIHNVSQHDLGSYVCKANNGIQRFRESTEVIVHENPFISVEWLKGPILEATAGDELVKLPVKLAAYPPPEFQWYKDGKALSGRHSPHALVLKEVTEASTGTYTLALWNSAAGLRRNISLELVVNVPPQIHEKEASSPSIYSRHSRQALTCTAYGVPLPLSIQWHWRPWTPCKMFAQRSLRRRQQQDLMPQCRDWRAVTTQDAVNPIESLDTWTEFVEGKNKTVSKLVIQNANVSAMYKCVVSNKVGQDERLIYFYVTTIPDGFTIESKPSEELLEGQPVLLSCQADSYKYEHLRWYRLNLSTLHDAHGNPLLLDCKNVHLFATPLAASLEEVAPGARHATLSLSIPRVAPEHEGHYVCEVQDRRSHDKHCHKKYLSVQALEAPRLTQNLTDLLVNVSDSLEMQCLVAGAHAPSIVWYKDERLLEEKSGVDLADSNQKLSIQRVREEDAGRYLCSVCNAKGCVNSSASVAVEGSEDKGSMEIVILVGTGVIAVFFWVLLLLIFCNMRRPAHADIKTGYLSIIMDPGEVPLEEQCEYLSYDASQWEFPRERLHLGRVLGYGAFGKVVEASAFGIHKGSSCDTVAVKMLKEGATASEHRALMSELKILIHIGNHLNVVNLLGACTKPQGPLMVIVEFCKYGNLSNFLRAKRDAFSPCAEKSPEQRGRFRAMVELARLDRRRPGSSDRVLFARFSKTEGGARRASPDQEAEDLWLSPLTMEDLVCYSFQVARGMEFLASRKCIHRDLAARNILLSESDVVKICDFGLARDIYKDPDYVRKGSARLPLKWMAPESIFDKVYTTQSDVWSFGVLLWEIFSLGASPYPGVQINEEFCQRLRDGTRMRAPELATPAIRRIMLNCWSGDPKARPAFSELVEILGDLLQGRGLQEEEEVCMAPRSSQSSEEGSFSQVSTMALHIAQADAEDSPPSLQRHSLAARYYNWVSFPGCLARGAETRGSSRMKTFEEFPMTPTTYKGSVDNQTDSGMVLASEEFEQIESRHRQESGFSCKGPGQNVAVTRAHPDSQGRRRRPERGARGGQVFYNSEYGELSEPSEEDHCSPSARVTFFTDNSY
UniProt P19643, whole entry, looked up: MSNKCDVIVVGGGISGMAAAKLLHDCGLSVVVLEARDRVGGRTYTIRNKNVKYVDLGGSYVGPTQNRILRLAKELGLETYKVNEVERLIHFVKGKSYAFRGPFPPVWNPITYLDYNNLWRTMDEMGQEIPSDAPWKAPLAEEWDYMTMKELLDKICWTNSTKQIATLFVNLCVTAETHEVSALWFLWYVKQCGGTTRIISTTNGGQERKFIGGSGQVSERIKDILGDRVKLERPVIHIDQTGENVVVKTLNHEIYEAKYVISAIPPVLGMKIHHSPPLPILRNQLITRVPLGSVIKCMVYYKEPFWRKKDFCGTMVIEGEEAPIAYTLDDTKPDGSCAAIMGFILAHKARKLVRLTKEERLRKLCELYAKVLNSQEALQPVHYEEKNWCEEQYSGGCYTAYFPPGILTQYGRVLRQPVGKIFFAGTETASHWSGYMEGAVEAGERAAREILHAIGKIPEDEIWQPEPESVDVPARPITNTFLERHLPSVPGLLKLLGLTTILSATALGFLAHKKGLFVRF

Assays:
[1] = target: human Serotonin, 5-Hydroxytryptamine Receptor 2A (5HT2A), HTR2A (gene 3356) (UniProt P28223); experiment: NVS_GPCR_h5HT2A: NovaScreen (NVS) G Protein-Coupled Receptor Assay for human Serotonin, 5-Hydroxytryptamine Receptor 2A (5HT2A) (AID 2283249)
Protocol: NVS_GPCR_h5HT2A is a biochemical, single-readout assay that uses extracted gene-proteins from Human cortex in a tissue-based cell-free assay. Measurements were taken 1.5 hours after chemical dosing in a 48-well plate.NVS_GPCR_h5HT2A is one of one assay component(s) measured or calculated from the NVS_GPCR_h5HT2A assay. It is designed to make measurements of radioligand binding, a form of binding reporter, as detected with scintillation counting signals by Filter-based radiodetection technology.Data from the assay component NVS_GPCR_h5HT2A was analyzed into 1 assay endpoint. This assay endpoint, NVS_GPCR_h5HT2A, was analyzed in the positive analysis fitting direction relative to DMSO as the negative control and baseline of activity. […] Furthermore, this assay endpoint can be referred to as a primary readout, because the performed assay has only produced 1 assay endpoint. […]
Binding assays used specific radioligands (tritiated, iodinated) with non-radioactive competitive displacement ligands in agonist or antagonist protocols (as indicated) and various reference compounds and inhibitors to titrate specific binding to receptors and transporters. Most enzyme assays (CYPs, kinases, phosphatases, proteases, HDACs) used recombinant protein and specific substrates (fluorescence mostly, some colorimetric and radioactive) and inhibitors, followed by a biochemical separation of substrate and product. […]

[2] = target: human Tyrosine Protein Kinase Receptor Tie-2 (Tie2), TEK (gene 7010) (UniProt Q02763); experiment: NVS_ENZ_hTie2: NovaScreen (NVS) Enzymatic Assay for human Tyrosine Protein Kinase Receptor Tie-2 (Tie2) (AID 2283225)
Method in brief: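 Substrate and product were separated by mobility shift and detected by fluorescence after a 1-hour reaction with recombinant Tie2. Chemicals passing a 25 uM single-point screen were titrated to a maximum of 50 uM. Results were normalized to DMSO baseline.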

[3] = target: human Vascular Endothelial Growth Factor Receptor 1 (VEGFR1), FLT1 (gene 2321) (UniProt P17948); experiment: NVS_ENZ_hVEGFR1: NovaScreen (NVS) Enzymatic Assay for human Vascular Endothelial Growth Factor Receptor 1 (VEGFR1) (AID 2283226)
Method in brief: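 Kinase activity of recombinant human VEGFR1 was read by fluorescence after electrophoretic separation of product from substrate, 1 h post-dosing; initial duplicate single-point testing at 25 uM, followed by concentration-series follow-up, with DMSO as baseline.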

[4] = target: Adenosine receptor A1 (Bos taurus) (UniProt P28190); experiment: NVS_GPCR_bAdoR_NonSelective: NovaScreen (NVS) G Protein-Coupled Receptor Assay for bovine Adenosine Receptor (AdoR), Non-selective Binding (AID 2283244)
Method in brief: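 Cell-free binding with membranes from bovine striatum: radioligand displaced by test chemical, read after 1 h by filtration and scintillation. Single-point 25 uM duplicate primary, 50 uM top concentration in follow-up curves, DMSO baseline.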

[5] = target: guinea pig Leukotriene D4 Receptor (LTD4), CYSLTR1 (gene 100135514) (UniProt Q2NNR5); experiment: NVS_GPCR_gLTD4: NovaScreen (NVS) G Protein-Coupled Receptor Assay for guinea pig Leukotriene D4 Receptor (LTD4) (AID 2283248)
Protocol: NVS_GPCR_gLTD4 is a biochemical, single-readout assay that uses extracted gene-proteins from Guinea pig lung membranes in a tissue-based cell-free assay. Measurements were taken 1 hour after chemical dosing in a 48-well plate.NVS_GPCR_gLTD4 is one of one assay component(s) measured or calculated from the NVS_GPCR_gLTD4 assay. It is designed to make measurements of radioligand binding, a form of binding reporter, as detected with scintillation counting signals by Filter-based radiodetection technology.Data from the assay component NVS_GPCR_gLTD4 was analyzed into 1 assay endpoint. This assay endpoint, NVS_GPCR_gLTD4, was analyzed in the positive analysis fitting direction relative to DMSO as the negative control and baseline of activity. Using a type of binding reporter, loss-of-signal activity can be used to understand changes in the binding as they relate to the gene Cysltr1. Furthermore, this assay endpoint can be referred to as a primary readout, because the performed assay has only produced 1 assay endpoint. To generalize the intended target to other relatable targets, this assay endpoint is annotated to the gpcr intended target family, where the subfamily is rhodopsin-like receptor. […]

[6] = target: human Serotonin, 5-Hydroxytryptamine Receptor 5A (5HT5A), HTR5A (gene 3361) (UniProt P47898); experiment: NVS_GPCR_h5HT5A: NovaScreen (NVS) G Protein-Coupled Receptor Assay for human Serotonin, 5-Hydroxytryptamine Receptor 5A (5HT5A) (AID 2283251)
Method in brief: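 Membranes from HEK293 cells, radioligand binding read by filtration and scintillation after 1 h. Single-concentration duplicate testing at 25 uM, then concentration-response for actives; positive-direction fitting relative to DMSO.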

[7] = target: guinea pig Opioid, Kappa 1 Receptor (OpiateK), OPRK1 (gene 100135587) (UniProt P41144); experiment: NVS_GPCR_gOpiateK: NovaScreen (NVS) G Protein-Coupled Receptor Assay for guinea pig Opioid, Kappa 1 Receptor (OpiateK) (AID 2283252);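 note: active means reduced radioligand binding relative to DMSO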
Method in brief: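 Radioligand binding to kappa opioid receptor in guinea pig cerebellar membranes, read by filtration and scintillation at 2 h. Compounds first tested in duplicate at 25 uM, then actives in concentration series; signal loss fitted against DMSO.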

[8] = target: human Vascular Endothelial Growth Factor Receptor 3 (VEGFR3), FLT4 (gene 2324) (UniProt P35916); experiment: NVS_ENZ_hVEGFR3: NovaScreen (NVS) Enzymatic Assay for human Vascular Endothelial Growth Factor Receptor 3 (VEGFR3) (AID 2283229)
Method in brief: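 Chemicals first run in duplicate at 25 uM, with actives re-tested in concentration series to a top of 50 uM. Recombinant VEGFR3 activity measured after 1 h via fluorescence with mobility-shift product separation; inhibition fitted relative to DMSO.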

[9] = target: rat Monoamine Oxidase, MAO-B, Peripheral (MAOBP), Maob (gene 25750) (UniProt P19643); experiment: NVS_ENZ_rMAOBP: NovaScreen (NVS) Enzymatic Assay for rat Monoamine Oxidase, MAO-B, Peripheral (MAOBP) (AID 2283242)
[10] = target: sheep Cyclooxygenase-1 (Cox1), PTGS1 (gene 443551) (UniProt P05979); experiment: NVS_ENZ_oCOX1: NovaScreen (NVS) Enzymatic Assay for sheep Cyclooxygenase-1 (Cox1) (AID 2283239);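 note: actives reduce cyclooxygenase activity so potencies are for inhibitors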
Method in brief: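 Colorimetric enzyme readout using sheep seminal-vesicle cyclooxygenase-1, measured 0.66 h post-dosing. Single-concentration duplicates at 25 uM first, then concentration series for actives, with DMSO as baseline and plate controls.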

O=C1C2CC=CCC2C(=O)N1SC(Cl)(Cl)C(Cl)Cl (centres undefined)
outcome [1]: inactive

CC(C)OP(=S)(OC(C)C)SCCNS(=O)(=O)c1ccccc1
outcome [2]: inactive | outcome [3]: inactive | outcome [4]: inactive | outcome [5]: inactive | AC50 [6]: active: 4.96 µM | outcome [6]: inactive | AC50 [7]: active: 3.43 µM and active: 2.16 µM | outcome [7]: inactive

Cc1cc([N+](=O)[O-])cc([N+](=O)[O-])c1O
outcome [3]: inactive | outcome [8]: inactive | outcome [9]: inactive

CN(C(=O)Cc1cccc2occc12)[C@H]1CC[C@@]2(CCCO2)C[C@@H]1N1CCCC1
outcome [10]: inactive | AC50 [7]: active: 3.16 nM
